According to paper PMC10075506, “Synthesis and biological evaluation of flavonoid-based IP6K2 inhibitors” (Journal of Enzyme Inhibition and Medicinal Chemistry, 2023):

Target: T1, recombinant human IP6K2 (Homo sapiens, UniProt Q9UHH9)
T1 construct: made in house; host or cells: Sf9 insect cells (baculovirus, pFASTBAC1)
T1 sequence (Q9UHH9 1-426): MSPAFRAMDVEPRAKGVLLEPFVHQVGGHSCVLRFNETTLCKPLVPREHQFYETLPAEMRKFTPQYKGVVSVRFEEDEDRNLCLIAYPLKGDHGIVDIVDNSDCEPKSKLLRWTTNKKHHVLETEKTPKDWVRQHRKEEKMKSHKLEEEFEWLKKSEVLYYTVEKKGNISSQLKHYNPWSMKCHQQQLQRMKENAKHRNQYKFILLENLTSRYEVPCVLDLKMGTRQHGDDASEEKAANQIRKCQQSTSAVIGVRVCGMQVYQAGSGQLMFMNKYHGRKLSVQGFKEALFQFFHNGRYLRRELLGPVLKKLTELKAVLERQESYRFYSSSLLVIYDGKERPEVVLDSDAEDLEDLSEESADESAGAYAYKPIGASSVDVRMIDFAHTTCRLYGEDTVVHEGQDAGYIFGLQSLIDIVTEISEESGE
Assay: ADP-Glo kinase assay, IP6K2
Assay type: biochemical

O=c1c(O)c(-c2ccc(O)c(O)c2)oc2cc(O)cc(O)c12 [Quercetin, 3,3′,4′,5,7-pentahydroxylflavone, reference compound]
IC50: 3.31 ± 0.27 µM
